## CycPeptMPDB entries from one study

Values of Townsend et al. 2020, doi:10.26434/chemrxiv.13335941.v1, as listed in CycPeptMPDB.

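Conditions beyond the assay type are not listed; see the original paper. The list need not hold all peptides of the study. Peptides that the database sets to -10, its floor, are left out.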

PAMPA measures passive passage through an artificial lipid membrane.
Permeability is in 10^-6 cm/s, converted from the database's log10 values; higher is more permeable.

compound	PAMPA (10^-6 cm/s)
CC(C)C[C@@H]1C(=O)N[C@@H](Cc2ccccc2)C(=O)N[C@H](C)C(=O)N(C)[C@H](CC(C)C)C(=O)N(Cc2ccccc2)CC(=O)N2CCC[C@@H]2C(=O)N1C	2
CCCN1CC(=O)N[C@@H](CC(C)C)C(=O)N(C)[C@@H](CC(C)C)C(=O)N2CCC[C@@H]2C(=O)N(C)[C@@H](CC(C)C)C(=O)N[C@@H](Cc2ccccc2)C(=O)N2CCC[C@@H]2C1=O	11
CC(C)C[C@@H]1C(=O)N[C@@H](Cc2ccccc2)C(=O)N2CCC[C@@H]2C(=O)N[C@@H](Cc2ccccc2)CC(=O)N[C@H](CC(C)C)C(=O)N(Cc2ccccc2)CC(=O)N2CCC[C@H]2C(=O)N1C	2.1
CC(C)C[C@H]1NC(=O)[C@@H](C)N(C)C(=O)[C@H]2CCCN2C(=O)[C@H](Cc2ccccc2)NC(=O)CN(Cc2ccccc2)C(=O)[C@H]2CCCN2C(=O)[C@@H](CC(C)C)NC1=O	1.2
CC(C)C[C@@H]1NC(=O)[C@H](C)NC(=O)[C@@H]2CCCN2C(=O)[C@H](Cc2ccccc2)NC(=O)[C@H](CC(C)C)NC(=O)[C@@H]2CCCN2C(=O)C[C@H](Cc2ccccc2)NC1=O	0.32
CCCN1CC(=O)N[C@@H](CC(C)C)C(=O)N(C)[C@H](CC(C)C)C(=O)N2CCC[C@H]2C(=O)N(Cc2ccccc2)CC(=O)N[C@@H](Cc2ccccc2)C(=O)N2CCC[C@H]2C1=O	1.5
CCCN1CC(=O)N(C)[C@@H](CC(C)C)C(=O)N(C)[C@@H](CC(C)C)C(=O)N2CCC[C@@H]2C(=O)N(C)[C@@H](CC(C)C)C(=O)N[C@@H](Cc2ccccc2)C(=O)N2CCC[C@@H]2C1=O	13
CC(C)C[C@@H]1C(=O)N[C@H](CC(C)C)C(=O)N2CCC[C@H]2C(=O)N[C@H](CC(C)C)C(=O)N[C@@H](Cc2ccccc2)C(=O)N2CCC[C@@H]2C(=O)N(C)[C@@H](C)C(=O)N1C	0.29
CC(C)C[C@@H]1C(=O)N[C@H](CC(C)C)C(=O)N2CCC[C@H]2C(=O)N(C)[C@H](CC(C)C)C(=O)N[C@@H](Cc2ccccc2)C(=O)N2CCC[C@@H]2C(=O)N[C@@H](C)C(=O)N1C	1.8
CC(C)C[C@@H]1C(=O)N2CCC[C@H]2C(=O)N(Cc2ccccc2)CC(=O)N[C@@H](Cc2ccccc2)C(=O)N2CCC[C@@H]2C(=O)N[C@@H](Cc2ccccc2)CC(=O)N[C@H](CC(C)C)C(=O)N1C	2.1
CCCN1CC(=O)N[C@H](CC(C)C)C(=O)N[C@H](CC(C)C)C(=O)N2CCC[C@H]2C(=O)N(Cc2ccccc2)CC(=O)N[C@@H](Cc2ccccc2)C(=O)N2CCC[C@H]2C1=O	1.7
CC(C)C[C@@H]1NC(=O)[C@H](C)NC(=O)[C@H](Cc2ccccc2)NC(=O)CN(Cc2ccccc2)C(=O)[C@H]2CCCN2C(=O)CN(Cc2ccccc2)C1=O	0.93
CC(C)C[C@@H]1NC(=O)[C@H](C)N(C)C(=O)[C@H]2CCCN2C(=O)[C@H](Cc2ccccc2)NC(=O)[C@H](CC(C)C)N(C)C(=O)[C@H]2CCCN2C(=O)CN(Cc2ccccc2)C1=O	1.3
CC(C)C[C@@H]1NC(=O)C[C@H](Cc2ccccc2)NC(=O)[C@@H]2CCCN2C(=O)[C@H](Cc2ccccc2)NC(=O)CN(Cc2ccccc2)C(=O)[C@@H]2CCCN2C(=O)[C@H](CC(C)C)NC1=O	1.7
CC(C)C[C@H]1NC(=O)[C@@H]2CCCN2C(=O)C[C@H](Cc2ccccc2)NC(=O)[C@H](CC(C)C)N(C)C(=O)[C@H](C)NC(=O)[C@@H]2CCCN2C(=O)[C@H](Cc2ccccc2)NC1=O	0.38
CC(C)C[C@@H]1NC(=O)[C@H]2CCCN2C(=O)CN(Cc2ccccc2)C(=O)[C@@H](CC(C)C)N(C)C(=O)C[C@H](Cc2ccccc2)NC(=O)[C@@H]2CCCN2C(=O)[C@H](Cc2ccccc2)NC1=O	1.3
CCCN1CC(=O)N[C@@H](CC(C)C)C(=O)N(C)[C@H](CC(C)C)C(=O)N2CCC[C@@H]2C(=O)N[C@H](CC(C)C)C(=O)N[C@@H](Cc2ccccc2)C(=O)N2CCC[C@H]2C1=O	2.5
CCCN1CC(=O)N(C)[C@H](CC(C)C)C(=O)N(C)[C@H](CC(C)C)C(=O)N2CCC[C@H]2C(=O)N(C)[C@H](CC(C)C)C(=O)N[C@@H](Cc2ccccc2)C1=O	14
CC(C)C[C@H]1NC(=O)[C@H](C)NC(=O)[C@H]2CCCN2C(=O)[C@H](Cc2ccccc2)NC(=O)CN(Cc2ccccc2)C(=O)[C@H]2CCCN2C(=O)[C@@H](CC(C)C)NC1=O	0.21
CC(C)C[C@@H]1NC(=O)[C@@H](C)N(C)C(=O)[C@H](Cc2ccccc2)NC(=O)[C@H](CC(C)C)N(C)C(=O)[C@H]2CCCN2C(=O)[C@H](CC(C)C)NC1=O	3.9